Data as given in article PMC7248194, “Cell-Based Radiotracer Binding and Uptake Inhibition Assays: A Comparison of In Vitro Methods to Assess the Potency of Drugs That Target Monoamine Transporters” (Frontiers in Pharmacology, 2020).

By UniProt entry, the sequences of proteins in these tests, tags left out. Residues count along the entry.
UniProt Q63380, 1-617: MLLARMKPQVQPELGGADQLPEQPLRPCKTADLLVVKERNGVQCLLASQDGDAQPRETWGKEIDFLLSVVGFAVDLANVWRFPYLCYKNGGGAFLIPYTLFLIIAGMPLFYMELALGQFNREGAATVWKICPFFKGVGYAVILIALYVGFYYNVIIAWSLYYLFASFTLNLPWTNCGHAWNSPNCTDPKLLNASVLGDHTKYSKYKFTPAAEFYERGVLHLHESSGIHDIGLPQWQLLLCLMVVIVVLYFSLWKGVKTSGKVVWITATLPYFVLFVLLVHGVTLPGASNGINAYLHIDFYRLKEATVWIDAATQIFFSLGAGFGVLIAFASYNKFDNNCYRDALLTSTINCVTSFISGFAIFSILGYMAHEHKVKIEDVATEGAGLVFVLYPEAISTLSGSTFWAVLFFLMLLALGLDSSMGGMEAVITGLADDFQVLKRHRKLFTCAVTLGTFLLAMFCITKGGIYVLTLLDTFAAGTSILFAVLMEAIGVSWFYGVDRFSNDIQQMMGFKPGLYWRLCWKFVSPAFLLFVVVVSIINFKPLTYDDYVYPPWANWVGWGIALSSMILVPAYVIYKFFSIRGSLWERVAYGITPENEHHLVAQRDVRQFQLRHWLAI
UniProt P31652, whole entry: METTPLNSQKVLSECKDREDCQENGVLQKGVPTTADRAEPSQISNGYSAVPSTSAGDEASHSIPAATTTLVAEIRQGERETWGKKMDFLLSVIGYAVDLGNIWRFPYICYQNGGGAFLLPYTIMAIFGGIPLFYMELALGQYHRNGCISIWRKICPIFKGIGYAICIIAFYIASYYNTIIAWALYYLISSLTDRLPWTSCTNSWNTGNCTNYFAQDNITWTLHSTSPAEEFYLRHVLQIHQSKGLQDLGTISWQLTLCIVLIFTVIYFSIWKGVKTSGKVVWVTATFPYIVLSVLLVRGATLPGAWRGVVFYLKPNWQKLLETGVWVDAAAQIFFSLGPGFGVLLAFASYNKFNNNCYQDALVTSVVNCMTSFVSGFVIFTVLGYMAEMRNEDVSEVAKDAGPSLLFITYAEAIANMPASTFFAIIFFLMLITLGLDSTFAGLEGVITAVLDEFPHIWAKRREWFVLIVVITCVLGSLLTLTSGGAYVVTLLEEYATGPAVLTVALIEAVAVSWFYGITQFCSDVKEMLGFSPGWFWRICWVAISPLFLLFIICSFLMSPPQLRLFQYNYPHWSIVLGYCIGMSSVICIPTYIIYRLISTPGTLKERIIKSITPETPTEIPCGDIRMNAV

Key:
rNET = molecular target: T1, rNET (Rattus norvegicus, UniProt Q63380); test: inhibition of [3H]-MPP+ uptake, adherent HEK […] cells; assay type: cell-based
T1 construct: gene Slc6a2; full-length, stably expressed in HEK 293 cells (Vienna, 'cell line 3')

rSERT = molecular target: T2, rSERT (Rattus norvegicus, UniProt P31652); test: inhibition of [3H]-5-HT uptake, adherent HEK […] cells; assay type: cell-based
T2 construct: gene Slc6a4; full-length, stably expressed in HEK 293 cells (Vienna, 'cell line 3')

How did the IC50 (rNET) turn out when COC(=O)[C@H]1[C@@H](OC(=O)c2ccccc2)C[C@@H]2CC[C@H]1N2C [Cocaine] was run?
The IC50 was 2.4 ± 2 µM.

And the IC50 (rSERT)?
The IC50 was 4.3 ± 2.1 µM.
